5 compounds from patent publication US10392368B2, “Pyrazolo and triazolo bicyclic compounds as JAK kinase inhibitors” (THERAVANCE BIOPHARMA R&D IP, LLC, priority 2017, dated 2019) can be followed below.

The chains behind the UniProt entries cited, without tags or fusion partners.
UniProt P29597, whole entry: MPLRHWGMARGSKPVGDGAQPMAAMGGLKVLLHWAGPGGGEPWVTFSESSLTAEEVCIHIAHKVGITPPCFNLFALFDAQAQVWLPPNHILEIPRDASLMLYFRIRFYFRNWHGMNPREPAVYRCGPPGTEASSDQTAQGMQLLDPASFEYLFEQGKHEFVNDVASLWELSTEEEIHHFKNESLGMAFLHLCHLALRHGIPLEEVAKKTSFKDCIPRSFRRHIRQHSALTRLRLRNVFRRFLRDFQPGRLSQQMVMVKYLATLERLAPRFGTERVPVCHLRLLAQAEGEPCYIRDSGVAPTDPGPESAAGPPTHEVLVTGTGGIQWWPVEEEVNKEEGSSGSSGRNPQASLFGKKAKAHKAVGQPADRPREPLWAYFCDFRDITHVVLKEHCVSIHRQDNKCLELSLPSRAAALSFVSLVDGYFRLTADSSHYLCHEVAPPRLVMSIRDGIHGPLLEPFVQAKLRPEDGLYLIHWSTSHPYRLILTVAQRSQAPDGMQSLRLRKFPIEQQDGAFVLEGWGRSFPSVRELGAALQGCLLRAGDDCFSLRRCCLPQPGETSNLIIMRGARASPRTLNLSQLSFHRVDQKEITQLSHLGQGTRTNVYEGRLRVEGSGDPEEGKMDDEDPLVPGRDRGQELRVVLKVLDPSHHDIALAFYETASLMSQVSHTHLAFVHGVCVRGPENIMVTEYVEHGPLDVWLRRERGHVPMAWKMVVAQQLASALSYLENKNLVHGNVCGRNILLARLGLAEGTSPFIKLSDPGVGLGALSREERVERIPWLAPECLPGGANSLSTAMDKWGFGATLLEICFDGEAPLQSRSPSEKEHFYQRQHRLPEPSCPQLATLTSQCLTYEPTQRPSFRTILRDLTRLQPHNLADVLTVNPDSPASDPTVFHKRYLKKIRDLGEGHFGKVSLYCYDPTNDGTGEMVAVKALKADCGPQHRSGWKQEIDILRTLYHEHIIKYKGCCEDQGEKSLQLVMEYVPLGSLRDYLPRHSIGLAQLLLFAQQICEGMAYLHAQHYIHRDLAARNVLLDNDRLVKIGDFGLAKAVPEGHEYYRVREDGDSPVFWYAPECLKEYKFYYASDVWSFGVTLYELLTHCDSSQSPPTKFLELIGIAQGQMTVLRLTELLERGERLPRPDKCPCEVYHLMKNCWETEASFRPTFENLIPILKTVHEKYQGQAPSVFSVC
UniProt P23458, whole entry: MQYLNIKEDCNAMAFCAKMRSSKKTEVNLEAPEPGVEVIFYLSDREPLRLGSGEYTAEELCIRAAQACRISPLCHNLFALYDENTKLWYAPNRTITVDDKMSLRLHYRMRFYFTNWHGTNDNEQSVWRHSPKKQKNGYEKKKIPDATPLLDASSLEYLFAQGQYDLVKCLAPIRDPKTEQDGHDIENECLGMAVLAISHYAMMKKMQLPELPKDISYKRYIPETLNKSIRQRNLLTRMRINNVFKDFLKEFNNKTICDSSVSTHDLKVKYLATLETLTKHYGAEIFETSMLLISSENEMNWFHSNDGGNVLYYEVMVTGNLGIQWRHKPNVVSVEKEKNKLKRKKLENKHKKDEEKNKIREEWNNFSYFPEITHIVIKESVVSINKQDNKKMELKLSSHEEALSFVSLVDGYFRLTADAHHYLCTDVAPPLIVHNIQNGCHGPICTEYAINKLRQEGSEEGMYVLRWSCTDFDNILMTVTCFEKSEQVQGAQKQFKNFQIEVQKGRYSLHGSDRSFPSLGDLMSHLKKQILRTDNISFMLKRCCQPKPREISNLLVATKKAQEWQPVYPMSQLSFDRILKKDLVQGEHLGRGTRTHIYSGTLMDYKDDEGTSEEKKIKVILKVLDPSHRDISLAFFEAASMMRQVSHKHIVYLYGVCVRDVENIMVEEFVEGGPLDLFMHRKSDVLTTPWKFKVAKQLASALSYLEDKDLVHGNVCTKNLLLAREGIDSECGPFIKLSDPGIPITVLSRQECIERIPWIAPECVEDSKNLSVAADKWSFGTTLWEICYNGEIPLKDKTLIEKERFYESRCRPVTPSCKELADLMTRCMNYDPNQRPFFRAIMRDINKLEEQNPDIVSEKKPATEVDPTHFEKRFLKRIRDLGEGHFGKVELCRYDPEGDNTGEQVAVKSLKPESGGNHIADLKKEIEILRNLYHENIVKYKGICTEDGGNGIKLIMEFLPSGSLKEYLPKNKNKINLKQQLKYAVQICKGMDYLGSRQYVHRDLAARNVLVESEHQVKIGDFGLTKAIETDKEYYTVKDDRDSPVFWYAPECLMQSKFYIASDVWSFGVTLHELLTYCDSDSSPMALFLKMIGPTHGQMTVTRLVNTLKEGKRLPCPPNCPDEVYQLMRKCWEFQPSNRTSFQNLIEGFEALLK
UniProt O60674, whole entry: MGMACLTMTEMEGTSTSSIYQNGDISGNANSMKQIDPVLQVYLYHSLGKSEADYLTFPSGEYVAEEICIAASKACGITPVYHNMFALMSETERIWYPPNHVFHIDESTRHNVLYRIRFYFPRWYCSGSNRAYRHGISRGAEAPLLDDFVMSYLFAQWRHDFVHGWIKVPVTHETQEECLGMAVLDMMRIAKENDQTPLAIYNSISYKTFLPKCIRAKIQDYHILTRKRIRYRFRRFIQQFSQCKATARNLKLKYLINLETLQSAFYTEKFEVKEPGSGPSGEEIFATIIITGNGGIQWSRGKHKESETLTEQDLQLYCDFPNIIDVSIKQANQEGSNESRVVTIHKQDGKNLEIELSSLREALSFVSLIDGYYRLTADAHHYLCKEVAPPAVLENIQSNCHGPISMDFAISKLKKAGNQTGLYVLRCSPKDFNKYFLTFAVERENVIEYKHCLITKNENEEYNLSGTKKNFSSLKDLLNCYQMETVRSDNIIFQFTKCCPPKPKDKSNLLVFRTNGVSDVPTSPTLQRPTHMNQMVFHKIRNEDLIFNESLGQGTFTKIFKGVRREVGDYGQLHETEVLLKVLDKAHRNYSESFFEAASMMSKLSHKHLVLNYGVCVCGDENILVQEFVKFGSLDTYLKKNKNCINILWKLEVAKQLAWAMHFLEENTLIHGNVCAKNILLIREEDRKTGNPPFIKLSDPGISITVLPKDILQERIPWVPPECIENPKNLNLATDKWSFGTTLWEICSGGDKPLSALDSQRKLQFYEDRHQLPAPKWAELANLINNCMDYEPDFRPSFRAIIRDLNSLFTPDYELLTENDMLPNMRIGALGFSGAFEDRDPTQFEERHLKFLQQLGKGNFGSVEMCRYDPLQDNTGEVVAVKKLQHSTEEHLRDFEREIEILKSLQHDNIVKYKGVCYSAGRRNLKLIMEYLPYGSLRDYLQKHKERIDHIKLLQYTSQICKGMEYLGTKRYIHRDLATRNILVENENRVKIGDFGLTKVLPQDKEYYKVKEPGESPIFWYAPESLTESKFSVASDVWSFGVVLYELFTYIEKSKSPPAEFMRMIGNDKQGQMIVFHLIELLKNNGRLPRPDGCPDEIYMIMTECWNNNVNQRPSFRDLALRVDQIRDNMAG
UniProt P52333, whole entry: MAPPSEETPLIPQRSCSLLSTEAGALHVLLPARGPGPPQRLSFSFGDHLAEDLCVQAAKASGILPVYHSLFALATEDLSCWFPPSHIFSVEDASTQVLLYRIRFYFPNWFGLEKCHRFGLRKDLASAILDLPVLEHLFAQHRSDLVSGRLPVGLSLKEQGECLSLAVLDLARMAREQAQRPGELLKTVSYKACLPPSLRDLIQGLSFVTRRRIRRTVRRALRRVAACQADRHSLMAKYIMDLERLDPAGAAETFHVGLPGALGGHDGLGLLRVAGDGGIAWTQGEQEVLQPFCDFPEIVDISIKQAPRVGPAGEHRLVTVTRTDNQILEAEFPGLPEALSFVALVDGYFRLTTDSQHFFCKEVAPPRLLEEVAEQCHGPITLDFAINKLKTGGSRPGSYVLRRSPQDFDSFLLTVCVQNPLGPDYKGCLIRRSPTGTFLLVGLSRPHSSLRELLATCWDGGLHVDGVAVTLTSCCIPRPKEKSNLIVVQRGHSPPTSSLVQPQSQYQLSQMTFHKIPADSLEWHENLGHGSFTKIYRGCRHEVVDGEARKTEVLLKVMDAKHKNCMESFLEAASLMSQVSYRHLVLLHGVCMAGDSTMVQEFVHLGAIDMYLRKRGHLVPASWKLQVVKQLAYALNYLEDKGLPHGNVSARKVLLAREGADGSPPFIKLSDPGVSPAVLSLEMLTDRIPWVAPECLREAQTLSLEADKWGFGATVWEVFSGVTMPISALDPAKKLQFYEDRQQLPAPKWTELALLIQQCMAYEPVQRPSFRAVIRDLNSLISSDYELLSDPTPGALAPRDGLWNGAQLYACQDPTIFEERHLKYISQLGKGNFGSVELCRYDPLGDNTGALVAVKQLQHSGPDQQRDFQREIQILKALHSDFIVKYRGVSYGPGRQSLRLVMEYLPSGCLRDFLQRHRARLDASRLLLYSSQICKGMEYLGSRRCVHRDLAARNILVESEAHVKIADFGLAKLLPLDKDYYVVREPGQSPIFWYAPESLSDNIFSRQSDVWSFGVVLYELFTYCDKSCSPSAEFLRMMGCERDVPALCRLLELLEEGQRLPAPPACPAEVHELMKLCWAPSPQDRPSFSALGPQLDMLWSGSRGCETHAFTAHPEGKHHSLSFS

Assay [1] has as its target Tyk2 (Homo sapiens, UniProt P29597). The assay can be described thus: Biochemical Tyk2 kinase assay (LanthaScreen). As for the experimental part:
(§1) A panel of four LanthaScreen JAK biochemical assays (JAK1, 2, 3 and Tyk2) were carried in a common kinase reaction buffer (50 mM HEPES, pH 7.5, 0.01% Brij-35, 10 mM MgCl2, and 1 mM EGTA). Recombinant GST-tagged JAK enzymes and a GFP-tagged STAT1 peptide substrate were obtained from Life Technologies.
Serially or discretely diluted compounds were pre-incubated with each of the four JAK enzymes and the substrate in white 384-well microplates (Corning) at ambient temperature for 1 h. ATP was subsequently added to initiate the kinase reactions in 10 μL total volume, with 1% DMSO. […] The plates were allowed to incubate at ambient temperature for 1 h before being read on the EnVision reader (Perkin Elmer). Emission ratio signals (520 nm/495 nm) were recorded and utilized to calculate the percent inhibition values based on DMSO and background controls.
(§2) For dose-response analysis, percent inhibition data were plotted vs. compound concentrations, and IC50 values were determined from a 4-parameter robust fit model with the Prism software (GraphPad Software). Results were expressed as pIC50 (negative logarithm of IC50) and subsequently converted to pKi (negative logarithm of dissociation constant, Ki) using the Cheng-Prusoff equation.

The subject of assay [2] is IL-2 stimulated pSTAT5 in Tall-1 T cells. The assay can be described thus: Cellular JAK3 potency assay: inhibition of IL-2 stimulated pSTAT5 in Tall-1 T cells.
Assay [3] addresses JAK1 (Homo sapiens, UniProt P23458). Briefly: Biochemical JAK1 kinase assay (LanthaScreen). As for the experimental part: as §1
Serially or discretely diluted compounds were pre-incubated with each of the four JAK enzymes and the substrate in white 384-well microplates (Corning) at ambient temperature for 1 h. ATP was subsequently added to initiate the kinase reactions in 10 μL total volume, with 1% DMSO. The final enzyme concentrations for JAK1, 2, 3 and Tyk2 are 4.2 nM, 0.1 nM, 1 nM, and 0.25 nM respectively; the corresponding Km ATP concentrations used are 25 μM, 3 μM, 1.6 μM, and 10 μM; while the substrate concentration is 200 nM for all four assays. Kinase reactions were allowed to proceed for 1 hour at ambient temperature before a 10 μL preparation of EDTA (10 mM final concentration) and Tb-anti-pSTAT1 (pTyr701) antibody (Life Technologies, 2 nM final concentration) in TR-FRET dilution buffer (Life Technologies) was added. The plates were allowed to incubate at ambient temperature for 1 h before being read on the EnVision reader (Perkin Elmer). Emission ratio signals (520 nm/495 nm) were recorded and utilized to calculate the percent inhibition values based on DMSO and background controls.
as §2

Assay [4] deals with JAK2 (Homo sapiens, UniProt O60674). Briefly: Biochemical JAK2 kinase assay (LanthaScreen). A general note: TR-FRET usually uses a lanthanide donor and a delayed reading to cut background.
In assay [5] the target is JAK3 (Homo sapiens, UniProt P52333). The assay can be described thus: Biochemical JAK3 kinase assay (LanthaScreen).
[6] abbreviates: IL-2 stimulated pSTAT5, Tall-1 T cells.
[7] abbreviates: selectivity JAK3 over JAK1, difference of pKi.

`C=CC(=O)N1CC[C@H](Oc2cc(-c3ccc(O)c(Cl)c3)cc3[nH]nc(C#N)c23)C1`: the “Tyk 2 (pKi)” value in assay [1] is recorded as “E (a pKi value of 7 or below (Ki of 100 nM or above))”. The “Tall-1 (pIC50)” value in assay [2] (IL-2 stimulated pSTAT5 in Tall-1 T cells) was “C (a pIC50 value between 6 and 6.7 (IC50 between 1 μM and 200 nM))”. In assay [3], the “JAK 1 (pKi)” value is given as “E (a pKi value of 7 or below (Ki of 100 nM or above))”. Moreover, the “JAK 2 (pKi)” value in assay [4] is on record as “E (a pKi value of 7 or below (Ki of 100 nM or above))”. Further, the “JAK 3 (pKi)” value in assay [5] was “B (a pKi value between 9 and 10 (Ki between 1 nM and 0.1 nM))”. Further, in assay [5] (selectivity: difference of pKi JAK3 and pKi JAK1), the “JAK3 (pKi)-JAK1 (pKi)” value was “A (a value of 3 or above)”.
As for `C=CC(=O)N1CCC(Cc2cc(-c3ccc(O)cc3)cc3[nH]ncc23)C1` (racemic), in assay [2] (setting [6]), the “Tall-1 (pIC50)” value was “B (a pIC50 value between 6.7 (included) and 7.5 (IC50 between 200 nM and 32 nM))”. Also, the “JAK 1 (pKi)” value in assay [3] is recorded as “E (a pKi value of 7 or below (Ki of 100 nM or above))”. Also, the “JAK 3 (pKi)” value in assay [5] is “C (a pKi value between 8 and 9 (Ki between 10 nM and 1 nM))”. For the same compound, the “JAK3 (pKi)-JAK1 (pKi)” value in assay [5] (setting [7]) is “B (a value of 2.3 to 3)”.
As for `C=CC(=O)N1CCCC(Cc2cc(-c3ccc(O)cc3)cc3[nH]ncc23)C1` (racemic), the “Tall-1 (pIC50)” value in assay [2] (setting [6]) was “B (a pIC50 value between 6.7 (included) and 7.5 (IC50 between 200 nM and 32 nM))”. Further, the “JAK 1 (pKi)” value in assay [3] was “E (a pKi value of 7 or below (Ki of 100 nM or above))”. The “JAK 3 (pKi)” value in assay [5] is “B (a pKi value between 9 and 10 (Ki between 1 nM and 0.1 nM))”. The “JAK3 (pKi)-JAK1 (pKi)” value in assay [5] (setting [7]) was “A (a value of 3 or above)”.
As to `CN(C)C/C=C/C(=O)N1CCC(Cc2cc(-c3ccc(O)cc3)cc3[nH]ncc23)C1` (racemic), in assay [2] (setting [6]), the “Tall-1 (pIC50)” value is “C (a pIC50 value between 6 and 6.7 (IC50 between 1 μM and 200 nM))”. In assay [3], the “JAK 1 (pKi)” value is given as “E (a pKi value of 7 or below (Ki of 100 nM or above))”. In assay [5], the “JAK 3 (pKi)” value is “B (a pKi value between 9 and 10 (Ki between 1 nM and 0.1 nM))”. Further, in assay [5] (setting [7]), the “JAK3 (pKi)-JAK1 (pKi)” value was “A (a value of 3 or above)”.
For `CN(C)C/C=C/C(=O)N1CCCC(Cc2cc(-c3ccc(O)cc3)cc3[nH]ncc23)C1` (racemic), the “Tall-1 (pIC50)” value in assay [2] (setting [6]) was “C (a pIC50 value between 6 and 6.7 (IC50 between 1 μM and 200 nM))”. In assay [3], the “JAK 1 (pKi)” value is given as “E (a pKi value of 7 or below (Ki of 100 nM or above))”. The “JAK 3 (pKi)” value in assay [5] is “B (a pKi value between 9 and 10 (Ki between 1 nM and 0.1 nM))”. The “JAK3 (pKi)-JAK1 (pKi)” value in assay [5] (setting [7]) was “A (a value of 3 or above)”.
